Assay results as given in patent US20050214310A1 (priority 2004, published 2005).

System: H3677 melanoma cell line
Assay type: cell-based

| Substance | pIC50 |
| --- | --- |
| Melphalan Menthol Ester [melphalan menthyl ester] | 4.55 |
| Mel-L-Phe-NH2 | 7.52 and 7.40 |
| Mel-D-Phe-NH2 | 5.57 |

pIC50: −log10 of the molar value. Values joined by “and” are separate entries in the source; they are usually repeats but may differ in a detail not shown here. Equal entries are not always repeated.
